Literature values, collected in PMC3837291.

By UniProt entry, the sequences of proteins in these tests, tags left out. Residues count along the entry.
UniProt P43896, 56-338: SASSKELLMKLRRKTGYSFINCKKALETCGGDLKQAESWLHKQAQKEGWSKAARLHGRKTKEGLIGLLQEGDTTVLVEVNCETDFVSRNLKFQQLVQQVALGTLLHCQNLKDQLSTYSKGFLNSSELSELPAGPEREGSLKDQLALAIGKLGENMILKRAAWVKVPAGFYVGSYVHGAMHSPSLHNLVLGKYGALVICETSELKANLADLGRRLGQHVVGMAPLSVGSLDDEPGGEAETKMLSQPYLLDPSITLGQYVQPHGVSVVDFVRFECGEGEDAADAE

Target: EF-Tsmt (Bos taurus) (UniProt P43896)

Question: Which Kd does the source give for EF-Tumt (from UniProt P49410) here?
Answer: 5.5 nM
